Data set [1] is described as follows: On-treatment liver chemistry (ALT, TBL, ALP), exploratory study PGx population, twelve AMBC trials. To be noted: Exploratory Study PGx Population (N=901).
Data set [2] in a line: On-treatment liver chemistry (ALT, TBL, ALP), confirmatory study PGx population, lapatinib plus letrozole phase III trial. It is filed as in vivo, human. Particulars: Confirmatory Study PGx Population (N=374).

Turning to `CS(=O)(=O)CCNCc1ccc(-c2ccc3ncnc(Nc4ccc(OCc5cccc(F)c5)c(Cl)c4)c3c2)o1` [lapatinib, N-(3 chloro-4-{[(3-fluorophenyl)methyl]oxy}phenyl)-6-[5-({[2 (methylsulfonyl)ethyl]amino}methyl)-2-furanyl]-4-quinazolinamine bis(4 methylbenzenesulfonate)monohydrate], in data set [1], the “Maximum on treatment TBL xULN: Mean(SD)” value is on record as 0.88 (1.08) xULN. Besides, in data set [2], the “Maximum on treatment ALP xULN: Mean(SD)” value is given as 1.57 (1.55) xULN and the “Maximum on treatment ALP xULN: Median” value is 1.08 xULN.

Source of the values: patent publication US9539257B2, “Method of treating cancer” (NOVARTIS AG, priority 2009, dated 2017).
